From patent US20240285576A1, “R-MDMA FOR TREATMENT OF PAIN” (Mind Medicine, Inc., priority 2023, published 2024)

System: Rats
Assay: Inflammatory pain: carrageenan-induced hyperalgesia, Hargreaves test
Conditions: R-MDMA 12.5 and 25 mg/kg PO

With `CN[C@H](C)Cc1ccc2c(c1)OCO2` [R-MDMA] as the compound, how does the thermal hyperalgesia (3 hours post-carrageenan, Hargreaves test at 60 and 120 minutes post dose) read?
Its thermal hyperalgesia is “significant decrease”.

And the “latency to withdraw the injured paw” value (compared to the vehicle treatment (P<0.001, P<0.01), FIG. 5)?
The value was “significantly increased”.
